Consider one compound from patent US8426453B2 (Astellas Pharma Inc., priority 2006, dated 2013).

Amino acid sequences for entries named in this document (tags omitted).
UniProt P80457, whole entry: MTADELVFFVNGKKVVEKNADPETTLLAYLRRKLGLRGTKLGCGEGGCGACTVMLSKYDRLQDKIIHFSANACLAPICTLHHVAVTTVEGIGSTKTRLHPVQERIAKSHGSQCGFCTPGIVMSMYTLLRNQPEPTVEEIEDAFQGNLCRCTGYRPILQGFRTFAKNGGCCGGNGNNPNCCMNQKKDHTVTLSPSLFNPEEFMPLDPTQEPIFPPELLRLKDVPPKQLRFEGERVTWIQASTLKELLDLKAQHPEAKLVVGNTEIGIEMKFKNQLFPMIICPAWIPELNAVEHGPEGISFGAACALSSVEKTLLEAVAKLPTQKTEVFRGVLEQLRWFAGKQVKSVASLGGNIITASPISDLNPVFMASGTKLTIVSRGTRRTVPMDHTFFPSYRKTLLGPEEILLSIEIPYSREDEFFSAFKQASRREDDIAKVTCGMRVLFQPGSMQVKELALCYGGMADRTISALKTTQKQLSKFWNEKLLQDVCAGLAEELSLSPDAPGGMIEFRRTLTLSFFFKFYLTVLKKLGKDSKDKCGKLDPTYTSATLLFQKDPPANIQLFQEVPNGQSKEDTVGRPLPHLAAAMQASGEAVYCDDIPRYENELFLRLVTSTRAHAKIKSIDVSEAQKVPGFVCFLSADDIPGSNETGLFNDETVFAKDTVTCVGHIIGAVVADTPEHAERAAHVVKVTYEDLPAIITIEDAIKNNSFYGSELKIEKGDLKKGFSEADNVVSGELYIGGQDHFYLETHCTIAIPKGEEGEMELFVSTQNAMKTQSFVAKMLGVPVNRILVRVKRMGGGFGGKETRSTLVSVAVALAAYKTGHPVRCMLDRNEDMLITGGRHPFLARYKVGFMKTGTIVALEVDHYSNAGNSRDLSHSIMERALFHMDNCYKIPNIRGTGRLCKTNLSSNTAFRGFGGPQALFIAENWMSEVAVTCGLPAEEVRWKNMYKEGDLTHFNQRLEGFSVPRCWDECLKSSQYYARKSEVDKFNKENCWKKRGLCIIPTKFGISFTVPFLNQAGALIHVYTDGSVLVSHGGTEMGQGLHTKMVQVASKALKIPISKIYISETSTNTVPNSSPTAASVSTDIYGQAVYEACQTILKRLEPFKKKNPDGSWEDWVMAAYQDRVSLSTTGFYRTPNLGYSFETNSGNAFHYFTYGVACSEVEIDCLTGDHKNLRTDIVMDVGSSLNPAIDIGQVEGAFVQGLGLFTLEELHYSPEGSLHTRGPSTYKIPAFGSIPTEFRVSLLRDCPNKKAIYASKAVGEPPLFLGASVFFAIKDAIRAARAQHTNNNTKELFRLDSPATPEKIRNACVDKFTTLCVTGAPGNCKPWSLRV

For the assay, the target named is xanthine oxidase (derived from butter milk, by Sigma) (Bos taurus, UniProt P80457). Put plainly: Xanthine oxidase inhibiting activity (pterin fluorescence assay). As to conditions: read-out: IC50 (xanthine oxidase inhibiting activity); xanthine oxidase 0.03 units/ml, pterin 5 μM, room temperature.

As usually defined, the IC50 is the concentration needed to halve the response being measured. As for `CC(C)(C)c1ccc(-c2ccc(-c3ccc(C(=O)O)s3)cc2C#N)cc1`, the half-inhibitory concentration (IC50) was 0.5 nM.
